Test results: patent publication US20030149244A1

Sequences of proteins named here, by UniProt entry; tags and fusion partners are left off.
UniProt P01854, whole entry, chain 1 of 2: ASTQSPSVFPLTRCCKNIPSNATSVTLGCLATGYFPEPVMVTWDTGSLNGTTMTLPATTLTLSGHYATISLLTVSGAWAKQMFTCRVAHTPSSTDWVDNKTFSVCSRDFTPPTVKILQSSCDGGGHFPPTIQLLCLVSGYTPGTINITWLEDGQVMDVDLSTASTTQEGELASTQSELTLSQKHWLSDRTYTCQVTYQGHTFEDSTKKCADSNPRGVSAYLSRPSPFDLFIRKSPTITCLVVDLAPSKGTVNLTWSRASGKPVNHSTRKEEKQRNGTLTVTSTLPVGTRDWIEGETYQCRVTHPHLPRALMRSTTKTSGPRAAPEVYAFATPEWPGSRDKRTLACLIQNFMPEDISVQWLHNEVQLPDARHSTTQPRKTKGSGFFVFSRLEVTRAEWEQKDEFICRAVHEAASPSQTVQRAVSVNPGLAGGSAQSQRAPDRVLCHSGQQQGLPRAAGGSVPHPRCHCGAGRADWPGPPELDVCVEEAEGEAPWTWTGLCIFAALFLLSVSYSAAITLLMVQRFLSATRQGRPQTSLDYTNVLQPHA

Molecular target: FcεRI-bound human IgE (IgE loaded on CHO 3D10 cells expressing the FcεRI alpha chain) (human) (UniProt P01854)
Assay: FACS on IgE-loaded CHO 3D10 cells (FIG. 4), arithmetic/linear scale

- mean channel fluorescence at 0.1 µg/ml: 4.7
Substance: humanized 4D5 (antibody)
